IC50 data for six compounds are collected here from patent US8933224B2, “Triazine derivatives” (Pfizer Inc., priority 2013, dated 2015).

Protein sequences, listed by entry. Tags and fused reporters are not part of them. Residues count along the entry.
UniProt Q9QYJ6, 24-794: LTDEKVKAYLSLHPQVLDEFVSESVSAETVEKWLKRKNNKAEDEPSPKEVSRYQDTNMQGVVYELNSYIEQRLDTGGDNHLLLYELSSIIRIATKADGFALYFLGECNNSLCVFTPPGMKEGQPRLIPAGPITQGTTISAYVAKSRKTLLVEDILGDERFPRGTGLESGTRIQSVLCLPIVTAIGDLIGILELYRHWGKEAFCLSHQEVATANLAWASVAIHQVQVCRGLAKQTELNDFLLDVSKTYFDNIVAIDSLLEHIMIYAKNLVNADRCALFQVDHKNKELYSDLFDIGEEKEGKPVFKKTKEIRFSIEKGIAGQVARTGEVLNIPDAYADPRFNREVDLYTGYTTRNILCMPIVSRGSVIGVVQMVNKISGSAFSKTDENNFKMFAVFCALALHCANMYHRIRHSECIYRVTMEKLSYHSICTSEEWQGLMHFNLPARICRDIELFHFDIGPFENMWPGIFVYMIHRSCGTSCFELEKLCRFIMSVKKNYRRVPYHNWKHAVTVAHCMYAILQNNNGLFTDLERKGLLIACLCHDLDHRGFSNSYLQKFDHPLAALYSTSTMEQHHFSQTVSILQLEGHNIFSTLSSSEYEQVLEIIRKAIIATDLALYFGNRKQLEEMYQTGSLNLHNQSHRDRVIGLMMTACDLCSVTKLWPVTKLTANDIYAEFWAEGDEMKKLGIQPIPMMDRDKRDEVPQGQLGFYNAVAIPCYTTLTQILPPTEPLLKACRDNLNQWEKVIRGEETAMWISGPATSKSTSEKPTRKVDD

Experiment [1] deals with human recombinant PDE10 enzyme (PDE10A) (Homo sapiens, UniProt Q9Y233). As to the kind of experiment: PDE10 scintillation proximity assay (SPA), inhibition of human recombinant PDE10 enzyme activity. In kind it is biochemical. To be noted: geometric mean of 2-4 determinations unless otherwise indicated (b: ≧5 determinations; c: single determination). As for the experimental part: (§1) PDE10 activity was measured using a scintillation assay (SPA-based method) similar to that previously described by Seeger, T. F. et al., Brain Research 985 (2003) 113-126. The compounds' relative activity as PDE10 inhibitors was investigated by assaying a fixed amount of enzyme in the presence of the test compound and low substrate concentration (cAMP) such that an IC50 could be determined. […] The assay is performed in a 384-well format with 50 μL assay buffer (50 mM TRIS pH 7.5; 1.3 mM MgCl2; 0.01% Brij) containing enough PDE10 to convert ˜20% of 20 nM ^3H-cAMP, and a range of inhibitors. Reactions are incubated for 30 minutes at 25° C. The addition of 20 μL of 8 mg/ml yttrium silicate SPA beads (PerkinElmer) stops the reaction. The plates are sealed (TopSeal, PerkinElmer) and the beads are allowed to settle for 8 hrs, after which they are read on the Trilux Microbeta overnight. ^1Rat enzyme preparation:^2Human enzyme preparation:
Human PDE10A coding sequence (amino acids 21 to 797 from the sequence with accession number NP_001124162.1) was synthesized using codon optimization for insect expression and cloned into the baculovirus expression vector pFastBac (Invitrogen) engineered to include a N-terminal His6 affinity tag to aid in purification as described in Seeger, T. F. et al., Brain Research 985 (2003) 113-126. The recombinant Bacmid was isolated and used to transfect sf9 insect cells to generate a viral stock. To generate cell paste for purification, sf21 cells were infected with the virus stock and cells were harvested 72 hours after infection as described in Seeger, T. F. et al., Brain Research 985 (2003) 113-126. Insect cell paste was lysed and after centrifugation, the supernatant was chromatographed on Ni-NTA agarose (Qiagen) as described in Seeger, T. F. et al., Brain Research 985 (2003) 113-126. Ni-NTA agarose eluting fractions containing PDE10A were chromatographed on Superdex 200 (GE Healthcare Life Sciences) in 50 mM Tris HCl pH 7.5, 150 mM NaCl, 1 mM EDTA, 10% glycerol, 2 mM TCEP, 1.5 mM benzamidine, EDTA-free protease inhibitors (Roche), and 5 μM E-64.
For orientation: In a scintillation proximity assay essentially only radioactivity close to the scintillant gives light.

The target in another experiment is rat PDE10 enzyme (Rattus norvegicus (Rat), UniProt Q9QYJ6). Description: PDE10 scintillation proximity assay (SPA), inhibition of rat PDE10 enzyme activity. In kind it is biochemical. To be noted: geometric mean of 2-4 determinations unless otherwise indicated (b: ≧5 determinations; c: single determination). On the procedure:
The products of Examples 1-175 were tested in the assay described below.
as §1
The recombinant Bacmid was isolated and used to transfect sf9 insect cells to generate a viral stock. To generate cell paste for purification, sf21 cells were infected with the virus stock and cells were harvested 72 hours after infection as described in Seeger, T. F. et al., Brain Research 985 (2003) 113-126. Insect cell paste was lysed and after centrifugation, the supernatant was chromatographed on Ni-NTA agarose (Qiagen) followed by Mono Q (GE Healthcare Life Sciences) as described in Seeger, T. F. et al., Brain Research 985 (2003) 113-126.

`[2H]C([2H])([2H])n1c(C)nc2c(c1=O)CN(c1ncnn3c(C)nc([C@@H]4CCOC4)c13)CC2` [Example 128]: in experiment [1], the IC50 amounted to 1.62 nM.

Turning to `COc1nc(C)nc2c1CN(c1ncnn3c(C)nc([C@@H]4CCOC4)c13)CC2` [Example 37, 4-methoxy-2-methyl-6-{7-methyl-5-[(3S)-tetrahydrofuran-3-yl]imidazo[5,1-f][1,2,4]triazin-4-yl}-5,6,7,8-tetrahydropyrido[4,3-d]pyrimidine], the results for the IC50 (against rat PDE10 enzyme; in experiment [1]) were 0.177 nM and 0.277 nM, respectively.

Turning to `COc1nc(C2CC2)nc2c1CN(c1ncnn3c(C)nc(-c4ccccc4F)c13)CC2` [Example 135, 2-cyclopropyl-6-[5-(2-fluorophenyl)-7-methylimidazo[5,1-f][1,2,4]triazin-4-yl]-4-methoxy-5,6,7,8-tetrahydropyrido[4,3-d]pyrimidine], the IC50 worked out at 1.04 nM against rat PDE10 enzyme and 1 nM in experiment [1].

At rat PDE10 enzyme, `Cc1nc(-c2ccccc2F)c2c(N3CCc4nc(C5CC5)n(C)c(=O)c4C3)ncnn12` [Example 142, 2-cyclopropyl-6-[5-(2-fluorophenyl)-7-methylimidazo[5,1-f][1,2,4]triazin-4-yl]-3-methyl-5,6,7,8-tetrahydropyrido[4,3-d]pyrimidin-4(3H)-one] showed an IC50 of 0.815 nM.

As for `Cc1nc2c(c(=O)n1C)CN(c1ncnn3c(C)nc([C@@H]4CCOC4)c13)CC2` [Example 127], half-maximal inhibition against rat PDE10 enzyme (IC50) was put at 0.484 nM.

At rat PDE10 enzyme, `[2H]C([2H])([2H])Oc1nc(C)nc2c1CN(c1ncnn3c(C)nc([C@@H]4CCOC4)c13)CC2` [Example 132] had a half-maximal inhibitory concentration (IC50) of 0.174 nM.

For orientation: IC50 means the concentration at which inhibition is half-maximal.
